From article PMC5413030, “Radiochemistry on electrodes: Synthesis of an ^18F-labelled and in vivo stable COX-2 inhibitor” (PLoS ONE, 2017)

How the values were obtained:
[1] = mouse
[2] = in vivo

| Structure (SMILES) | free 18F-fluoride in blood ([1]; female, in vivo) | time for background to subside ([2]; C57BL6, mouse) [h] | bone retention / defluorination ([2]; mouse) | excretion from blood ([2]; mouse) | metabolic behavior in vivo [1] |
| --- | --- | --- | --- | --- | --- |
| NS(=O)(=O)c1ccc(-n2nc(C(F)(F)F)c([18F])c2-c2ccccc2)cc1 | no free ^18F-fluoride present | ≤ 1 | no bone retention or defluorination | excreted from blood within an hour | – |
| NS(=O)(=O)c1ccc(-n2nc(C(F)(F)F)c(F)c2-c2ccccc2)cc1 [compound 1] | – | – | – | – | remains virtually unchanged |
